Numbers after ± are expanded uncertainties.
Settings: 313.15 K; Liquid; Closed cell (Static) method

For `CCCCOCCCC` [dibutyl ether], the “vapor or sublimation pressure” value was 2.068 ± 0.014 kPa.

Source: the NIST ThermoML archive (doi:10.1016/j.fluid.2012.01.008)
